# According to PubChem BioAssay AID493008 (The Scripps Research Institute Molecular Screening Center, 2010):
# Only a part is listed here, and it is no random draw. Some structures show a salt or complex split into parts, the way the source records it. Calls of active or inactive are those of the source.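 How the source made its calls: active means activation above the mean over all tested compounds plus 3 SD (cut at about 30% in these data); inactive means the rest.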
# Target: Troponin I, cardiac muscle (Homo sapiens) + Troponin T, cardiac muscle (Homo sapiens) + Troponin C, slow skeletal and cardiac muscles (Homo sapiens) (UniProt P19429+P45379+P63316)
# Assay: cardiac RTF calcium sensitivity activators, primary screen, biochemical, IANBD-TnC fluorescence, EC20 calcium (AID 493008);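 further: rise in fluorescence read as greater calcium sensitivity of cardiac thin filaments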
# Details: IANBD-labeled TnC RTF fluorescence at EC20 calcium; at 7.2 µM; active compounds read high; 0% EC20 calcium, 100% full calcium
row,SMILES,activation
1,Cc1c(NP(C)(=O)Oc2ccc(C(C)C)cc2)c(=O)n(-c2ccccc2)n1C (stereo not given),inactive: 5.63%
2,O=[N+]([O-])c1cc([N+](=O)[O-])c(Nc2ccccn2)c([N+](=O)[O-])c1,inactive: -1.32%
3,CCc1ccc(OP(C)(=O)O)cc1,inactive: -2.73%
4,COc1ccccc1OP(C)(=O)Nc1ccc(C)cc1C (stereo not given),inactive: 6.12%
5,CP(=O)(Nc1ccccn1)Oc1ccccc1 (stereo not given),inactive: -2.48%
6,COc1ccccc1OP(C)(=O)Nc1ccc(Br)cc1 (stereo not given),inactive: 0.74%
7,CN(C)CCOC(=O)C(O)(c1ccccc1)C1CCCC1 (stereo not given),inactive: 5.15%
8,COc1ccc(OP(C)(=O)Nc2ccccn2)cc1 (stereo not given),inactive: 5.56%
9,CCCCCCCCCCCCCCCC1C[N+](C)(C)CCOP(C)(=O)O1 (stereo not given),inactive: -13.4%
10,CP(=O)(Nc1ccc(Cl)cc1Cl)Oc1ccccc1 (stereo not given),inactive: 0.16%
11,CP(=O)(OCCOc1ccccc1)OCCOc1ccccc1,inactive: 0.67%
12,Cc1cc(C)cc(OP(C)(=O)Nc2cccc(C(F)(F)F)c2)c1 (stereo not given),inactive: -2.49%
13,O=C1C(O)=C([N+](=O)[O-])C(=O)C(O)=C1[N+](=O)[O-],inactive: -1.94%
14,COc1ccc(OP(C)(=O)Nc2ccccc2Br)cc1 (stereo not given),inactive: -2.72%
15,COc1ccccc1OP(C)(=O)Nc1ccc(C)c(C)c1 (stereo not given),inactive: -4.7%
16,CP(=O)(OC12CC3CC(CC(C3)C1)C2)OC12CC3CC(CC(C3)C1)C2,inactive: -2.35%
17,CCOC(=O)c1ccc(NP(C)(=O)Oc2ccc(Cl)cc2)cc1 (stereo not given),inactive: -6.11%
18,CP(=O)(Nc1ccc(Cl)cc1)Oc1ccc(F)cc1 (stereo not given),inactive: 6.65%
19,COc1ccccc1OP(C)(=O)Nc1ccccc1Br (stereo not given),inactive: 5.66%
20,CC(C)(C)c1ccc(OP(C)(=O)O)cc1,inactive: 0.49%
21,CN(C)C(=O)c1c([N+](=O)[O-])cc([N+](=O)[O-])cc1[N+](=O)[O-],inactive: 17.2%
22,COc1ccc(OP(C)(=O)Nc2ccc(Br)cc2)cc1 (stereo not given),inactive: 2.33%
23,CCN(CC)CC(O)COC(=O)C(O)(c1ccccc1)C1CCCCC1 (stereo not given),inactive: -7.83%

row,SMILES,activation
1,CCc1ccc(OP(C)(=O)Nc2cccnc2)cc1 (stereo not given),inactive: 8.52%
2,CP(=O)(Oc1ccccc1)N1CCOC1=O (stereo not given),inactive: 0.84%
3,O=C(OCCCN1CCCC1)C(O)(c1ccccc1)C1CCCCC1 (stereo not given),inactive: -4.88%
4,COc1ccccc1OP(C)(=O)Nc1c(C)n(C)n(-c2ccccc2)c1=O (stereo not given),inactive: 1.66%
5,CP(=O)(Nc1ccc2c(c1)OCCO2)Oc1ccccc1 (stereo not given),inactive: 2.34%
6,Cc1ccccc1NP(C)(=O)Nc1ccccc1C,inactive: -0.75%
7,CP(=O)(Nc1ccc(SC(F)(F)F)cc1)Oc1ccc(F)cc1 (stereo not given),inactive: 5.6%
8,CCOP(C)(=S)SCC(=O)NC(C)(CC)C(=O)O (stereo not given),inactive: -0.94%
9,O=[N+]([O-])c1cc([N+](=O)[O-])c(NCC2CCS(=O)(=O)C2)c([N+](=O)[O-])c1 (stereo not given),inactive: 7.27%
10,Cc1cc(-c2cccc3ccccc23)c(C)cn1.O=[N+]([O-])c1cc([N+](=O)[O-])c(O)c([N+](=O)[O-])c1,inactive: 1.68%
11,O=[N+]([O-])c1ccc(OP2(=O)COCCO2)cc1 (stereo not given),inactive: 1.12%
12,Cc1c(C(c2ccc3c(c2)OCO3)c2c(C)n(C)n(-c3ccccc3)c2=O)c(=O)n(-c2ccccc2)n1C.O=[N+]([O-])c1cc([N+](=O)[O-])c(O)c([N+](=O)[O-])c1,inactive: 2.29%
13,COc1ccc(OP(C)(=O)Nc2cccc(Br)c2)cc1 (stereo not given),inactive: 7.07%
14,COc1ccc(NP(C)(=O)Oc2ccccc2OC)cc1 (stereo not given),inactive: -5.17%
15,CN(C)CCOC(=O)C(O)(c1ccccc1)C1CCCCC1 (stereo not given),inactive: -1.56%
16,CCN(CC)CCCOC(=O)C(O)(c1ccccc1)C1CCCCC1 (stereo not given),inactive: -2.83%
17,Cc1c([N+](=O)[O-])cc([N+](=O)[O-])c(Br)c1[N+](=O)[O-],inactive: -4.63%
18,CCCCCOc1ccc(NP(C)(=O)Oc2ccc(Cl)cc2Cl)cc1 (stereo not given),inactive: -0.68%
19,O=[N+]([O-])c1cc([N+](=O)[O-])c(OC2CCCCC2O)c([N+](=O)[O-])c1 (stereo not given),inactive: 5.42%
20,CP(=O)(Nc1ccccc1)Oc1ccc(F)cc1 (stereo not given),inactive: 8.39%
21,COc1ccc(OP(C)(=O)Nc2ccc(SC(F)(F)F)cc2)cc1 (stereo not given),inactive: -2.25%
22,CCOC(=O)c1ccc(NP(C)(=O)Oc2ccc(F)cc2)cc1 (stereo not given),inactive: 9.28%
23,O=C(OCCN1CCN(CCOCc2ccccc2)CC1)C(O)(c1ccccc1)c1ccccc1,inactive: 4.8%

row,SMILES,activation
1,O=C(OC1CN2CCC1CC2)c1ccc([N+](=O)[O-])cc1 (stereo not given),inactive: 10.9%
2,COc1ccc2c(c1O)-c1c(O)c(OC)cc3c1[C@H](C2)[N+](C)(C)CC3.O=[N+]([O-])c1cc([N+](=O)[O-])c([O-])c([N+](=O)[O-])c1[O-],inactive: 6.46%
3,CC(C)c1ccc(OP(C)(=O)Nc2ccc(SC(F)(F)F)cc2)cc1 (stereo not given),inactive: 1.81%
4,CP(=O)(Nc1ccccc1F)Oc1ccccc1 (stereo not given),inactive: 9.79%
5,Cc1cc(C)cc(OP(C)(=O)Nc2ccccn2)c1 (stereo not given),inactive: -1.43%
6,CP(=O)(Nc1cccc(Br)c1)Oc1ccccc1 (stereo not given),inactive: -4.2%
7,Cc1ccc(C)c(NP(C)(=O)Oc2ccccc2)c1 (stereo not given),inactive: -5.53%
8,COc1ccccc1OP(C)(=O)Nc1cccc(Br)c1 (stereo not given),inactive: -4.8%
9,Cc1cc(C)cc(OP(C)(=O)Nc2ccc(C)cc2C)c1 (stereo not given),inactive: -2.82%
10,CCOC(=O)c1ccc(NP(C)(=O)Oc2cc(C)cc(C)c2)cc1 (stereo not given),inactive: -7.94%
11,CC1=NCCc2c1[nH]c1ccccc21.O=[N+]([O-])c1cc([N+](=O)[O-])c(O)c([N+](=O)[O-])c1,inactive: -1.46%
12,O=C(O)c1cccc(Nc2c([N+](=O)[O-])cc([N+](=O)[O-])cc2[N+](=O)[O-])c1,inactive: 0.82%
13,COc1ccccc1OP(C)(=O)Nc1c(C)cccc1C (stereo not given),inactive: 5.08%
14,CN1CCCCC1COC(=O)C1(O)c2ccccc2CCc2ccccc21 (stereo not given),inactive: 4.12%
15,CCCOc1ccc(NP(C)(=O)Oc2ccc(Cl)cc2)cc1 (stereo not given),inactive: 2.47%
16,CP(=O)(Nc1ccc(SC(F)(F)F)cc1)Oc1ccccc1 (stereo not given),inactive: -1.73%
17,CCOC(=O)C(CC)C1=NC(C)(C)Cc2ccccc21.O=[N+]([O-])c1cc([N+](=O)[O-])c(O)c([N+](=O)[O-])c1 (stereo not given),inactive: 4.29%
18,CC1=C2N=C(C=C3N=C(C(C)=C4[N-][C@@](C)([C@@H]5N=C1[C@](C)(CCC(=O)NC[C@@H](C)OP(=O)([O-])O[C@H]1[C@@H](O)[C@@H](n6cnc7cc(C)c(C)cc76)O[C@@H]1CO)[C@H]5CC(N)=O)[C@@](C)(CC(N)=O)[C@@H]4CCC(N)=O)[C@@](C)(CC(N)=O)[C@@H]3CCC(N)=O)C(C)(C)[C@@H]2CCC(N)=O.[C-]#N.[Co+3],inactive: 1.73%
19,O=[N+]([O-])c1cc([N+](=O)[O-])c(Nc2nnnn2CCO)c([N+](=O)[O-])c1,inactive: -2.48%
20,O=[N+]([O-])c1cc([N+](=O)[O-])c(-c2cnn(-c3ccccc3)c2)c([N+](=O)[O-])c1,inactive: 1.01%
21,Cc1nc2ccc3ccccc3c2s1.O=[N+]([O-])c1cc([N+](=O)[O-])c(O)c([N+](=O)[O-])c1,inactive: 5.8%
22,O=[N+]([O-])c1cc([N+](=O)[O-])c(-n2nnc3ccccc32)c([N+](=O)[O-])c1,inactive: 9.21%
23,CCOP(C)(=S)SCC(=O)NC(C)C(=O)O (stereo not given),inactive: -1.35%

row,SMILES,activation
1,CCOC(=O)c1ccc(NP(C)(=O)Oc2ccc(OC)cc2)cc1 (stereo not given),inactive: -3.28%
2,CP(=O)(Nc1ccccn1)Oc1ccc(Cl)cc1 (stereo not given),inactive: -2.21%
3,CP(=O)(Oc1ccccc1)OC(c1ccccc1)C(F)(F)F (stereo not given),inactive: 3.14%
4,Cc1cccc(C)c1OP(C)(=O)Nc1ccc(SC(F)(F)F)cc1 (stereo not given),inactive: 15.4%
5,Cc1cc(C)cc(OP(C)(=O)Nc2ccc(SC(F)(F)F)cc2)c1 (stereo not given),inactive: -6.22%
6,CP(=O)(NC(=O)Nc1ccccc1)Oc1ccccc1 (stereo not given),inactive: 2.05%
7,CCc1ccc(OP(C)(=O)N2CCN(c3ccc([N+](=O)[O-])cc3)CC2)cc1 (stereo not given),inactive: -0.25%
8,CP(=S)(Nn1cnnc1)Oc1ccccc1 (stereo not given),inactive: -6.3%
9,COc1ccccc1OP(C)(=O)Nc1ccccc1 (stereo not given),inactive: 3.55%
10,CP(=O)(Nc1ccccc1Br)Oc1ccccc1 (stereo not given),inactive: 5.93%
11,CCOC(=O)c1ccc(NP(C)(=O)Oc2ccccc2)cc1 (stereo not given),inactive: -5.57%
12,Cc1ccc(NP(C)(=O)Oc2ccccc2)c(C)c1 (stereo not given),inactive: 5.97%
13,COc1ccccc1OP(C)(=O)Nc1ccc(C)cc1 (stereo not given),inactive: -1.01%
14,COc1ccc(OP(C)(=O)Nc2cccc(F)c2)cc1 (stereo not given),inactive: 5.21%
15,COc1ccccc1OP(C)(=O)Nc1cc(Cl)ccc1C (stereo not given),inactive: 3.35%
16,Cc1cc(C)cc(OP(C)(N)=O)c1 (stereo not given),inactive: 5.01%
17,O=[N+]([O-])c1cc([N+](=O)[O-])c(Nc2cccnc2)c([N+](=O)[O-])c1,inactive: 7.54%
18,Cc1cccc(C)c1OP(C)(N)=O (stereo not given),inactive: -4.08%
19,CC(C)(C)c1ccc(OP(C)(=O)Nc2ccc(SC(F)(F)F)cc2)cc1 (stereo not given),inactive: -2.54%
20,O=[N+]([O-])c1ccc2c(c1)C=Nc1ccccc1O2,inactive: -0.81%
21,CCN(CC)CCCOC(=O)C(O)(c1ccccc1)c1ccccc1,inactive: -0.26%
